# Yeast mating assay B: variants of the scFv Ab-14

Reference: Li et al. 2023, doi:10.1038/s41467-023-39022-2. File: FLAb, binding data.

Antigen: PDVDLGDISGINAS, a 14-residue peptide of the SARS-CoV-2 spike HR2 region.

The variants keep the heavy chain, the linker and the frameworks of Ab-14 (scFv order VH, three GGGGS repeats, VL).
VH: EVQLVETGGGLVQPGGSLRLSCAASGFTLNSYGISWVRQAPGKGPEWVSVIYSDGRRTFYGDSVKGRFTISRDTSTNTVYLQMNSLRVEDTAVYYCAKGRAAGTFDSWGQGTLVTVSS
VL: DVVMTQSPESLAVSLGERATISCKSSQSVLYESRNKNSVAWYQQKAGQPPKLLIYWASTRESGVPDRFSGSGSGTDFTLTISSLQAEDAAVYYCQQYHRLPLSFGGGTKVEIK

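The parent was found by panning a naive human phage display library on the peptide. This is the validation round: designs drawn from the data on random variants, tested in the same kind of assay. Group labels follow the data file (En: ensemble of fine-tuned language models; GP: Gaussian process model; HC: hill climbing; Gen: genetic algorithm; Gibbs: Gibbs sampling; a sequence that several methods proposed may carry one label only). In AlphaSeq, yeast of one mating type display the scFv and yeast of the other type display the target. After mating in shaken culture at 30 °C for 16 h, diploids were selected and their barcode pairs sequenced. Scores were corrected for input abundance and mapped to Kd with protein pairs of known affinity run in the same pool. The assay was run in six technical replicates.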

Each variant is given by its three light chain CDRs, as the data file delimits them; those of the parent are KSSQSVLYESRNKNSVA, WASTRES, QQYHRLPLS. This list holds designs with more than six substitutions. The Kd shown is the geometric mean over detected replicates; a lower Kd is a better binder. An entry "no signal" has no value in the source: the pair was not observed among the diploids in any replicate. This suggests poor binding but is not conclusive.

The variant RVTNEFGKEMERKQSVA | ETDQRCM | QQYFRLPLI [En_Gibbs] showed 1.4 nM (6 of 6 replicates). The variant SVRHPFQGENGMKGSVA | NATIRDH | QQYFRLPLF [En_Gibbs] gave 1.2 nM (6 of 6 replicates). With KLDQSVLGGSRNKNSVA | HANQRES | QQYHRLPLY [GP_Gibbs] the result was 96 nM (6 of 6 replicates). For KISQMVNYESTHVNAVA | QMSTREE | QQYHRLPLS [En_HC], the assay gave 490 pM (6 of 6 replicates). The variant KISQMVRVGSTHSNSIA | EEATRLD | QQYHRLPLS [En_Gen] gave 2.1 nM (6 of 6 replicates). For IVSQLMLWGMHQKNSIA | EAQTRLN | QQYERLPLF [En_Gen], the assay gave no signal (0 of 6 replicates). The variant RLTQQMAGFNRHANNIA | STAVRQW | QQYARLPFI [En_Gibbs] gave 14 nM (6 of 6 replicates). For TVTQMAMTGMKNKRSVA | NAETREN | QQYHRLPLI [En_Gen], the assay gave 3.7 nM (6 of 6 replicates). For VFQQQWDGHTLTNSSVA | NVDERME | QQYYRLPLL [En_Gibbs], the assay gave 2.9 nM (6 of 6 replicates).

The variant KIQQSELQSSRNKNSVA | NASERES | QQYHRLPLS [GP_Gibbs] gave 540 pM (6 of 6 replicates). The variant TVTQMAMTGMMSKRSVA | NAETRES | QQYHRLPLI [En_Gen] showed 110 nM (6 of 6 replicates). The variant HLMPSNLHYTEHLNSVA | EAEERQE | QHYARLPLM [En_Gibbs] showed 1.6 nM (6 of 6 replicates). The variant KIGMTLNLLYEKQNNVA | DLVMREN | QQYHRLPLS [En_Gen] showed 32 pM (2 of 6 replicates). The variant HITYGMMVAGRHSSSIA | QAETRAK | QQYDRLPLI [En_Gen] showed 210 nM (6 of 6 replicates). With HITMGMYVAGRHHSSIA | QAEERAK | QQYDRLPLI [En_Gen] the result was 27 nM (6 of 6 replicates). The variant KIRVHNLMFYQNESSIA | GQSNRIE | QQYYHLPLT [En_Gibbs] showed 250 nM (6 of 6 replicates). The variant QLPNARPDGYLQKNNVA | EGTERSH | QQYMRLPLF [En_Gibbs] gave 780 pM (6 of 6 replicates). For KLSQSNKYESRMKNSVA | NASQREC | QQYHRLPLS [GP_Gibbs], the assay gave 3.9 nM (6 of 6 replicates).

The variant MISQLYNMGSFAINSVA | QASERNH | QQYDRLPLI [En_Gen] gave 320 nM (6 of 6 replicates). The variant MMSQVTGLGQRHRNNVA | QTSEREP | QQYDRLPLI [En_Gen] gave 3.2 nM (6 of 6 replicates). With MLSQMWALGTKVKNSVA | QASMRFN | QQYERLPLI [En_Gen] the result was 75 nM (4 of 6 replicates). With KMSQSNPMESRNWNSVA | NASKRES | QQYHRLPLS [GP_Gibbs] the result was 1.7 nM (6 of 6 replicates). The variant MLSQMWGTGMKASNSVA | QASMRFN | QQYHRLPLI [En_Gen] gave 35 nM (6 of 6 replicates). The variant MISDLTMVGSRNKNSVA | DLSTRGS | QQYHRLPLS [En_HC] showed 1.1 nM (6 of 6 replicates). For KISQMYRYEQQNSSSIA | EANTREQ | QSYYRLPLS [En_HC], the assay gave 450 nM (4 of 6 replicates). The variant KLVQFMNRGTHAKSNIA | DAQNRTD | QQYARLPLA [En_Gen] gave 810 pM (6 of 6 replicates). For KSEMLWDYKDRNLNSVA | NASTRES | QQYHRLPLS [GP_Gibbs], the assay gave 6.9 nM (6 of 6 replicates).

The variant NVSIEPYEGTRYWEAVA | DHSQRNN | QQYDQLPLS [En_Gibbs] showed 450 nM (3 of 6 replicates). For HISTSMRYESSLKNAIA | NEQTRES | QQYHRLPLS [En_HC], the assay gave 11 nM (5 of 6 replicates). With TISQMTSLFSQSINNVA | EVSMRES | QQYDRLPLT [En_Gen] the result was 6.2 nM (6 of 6 replicates). For KIGMTLNQLMHKKNNVA | DLVMREQ | QQYARLPLS [En_Gen], the assay gave 5.2 nM (6 of 6 replicates). For MISQILNMGQFAINSVA | QASLRNE | QQYDRLPLM [En_Gen], the assay gave 37 nM (5 of 6 replicates). For TITGEQSMSTQGNWSIA | QAEQKVH | QQYDRLPLA [En_Gibbs], the assay gave no signal (0 of 6 replicates). For SVRHYFQGENGMRGSVA | NATIRDQ | QQYFRLPLF [En_Gibbs], the assay gave 1.0 nM (6 of 6 replicates). The variant KLSATYRYESQNKNSIA | EMSTREQ | QCYHRLPLS [En_HC] gave 4.8 nM (6 of 6 replicates). The variant HISMLTLQGMRHRNSVA | QMTTREN | QQYDRLPLM [En_Gen] showed 2.6 nM (6 of 6 replicates).

The variant QLSMWEQNGGRSYSSVA | DDDVRMA | QQYHRLPLS [En_Gibbs] showed 7.3 nM (5 of 6 replicates). For TISQMWFLESKNKNNVA | EESTRED | QSYFRLPLS [En_HC], the assay gave 79 nM (5 of 6 replicates). The variant KLSMEPLVEWNRAQAIA | DAHMSYI | QQYFTLPLY [En_Gibbs] gave no signal (0 of 6 replicates). For HITDLMYNNNEGMKNIA | DKNISVM | QQYFRLPLS [En_Gibbs], the assay gave 650 pM (6 of 6 replicates). For KLEQSNDYEDRNANNVA | NASQRES | QQYHRLPLS [GP_Gibbs], the assay gave 1.5 nM (6 of 6 replicates). With ALGDVTRQESNKKNSIA | DMSNRES | QQYHRLPLS [En_HC] the result was 52 nM (6 of 6 replicates). The variant MISQLMNMGQFAINSVA | QASERSN | QQYDRLPLM [En_Gen] showed 260 nM (4 of 6 replicates). The variant NFPQEAMYESHFKNNVA | QTSTREP | QQYDHLPLS [En_HC] showed 3.2 nM (6 of 6 replicates). The variant KVSPSVMGWMRNKNSVA | NASTRRS | QQYHRLPLS [GP_Gibbs] gave 19 nM (6 of 6 replicates).

The variant KSQQSWEYESRNSNSVA | QASTRMA | QQYHRLPLI [GP_Gibbs] gave 2.7 nM (6 of 6 replicates). With QIYQAMHTLSQMKDNVA | DVSERGS | QQYFRLPLS [En_Gen] the result was 2.8 nM (6 of 6 replicates).

The 5 strongest on average among those seen in every replicate, once more:

The variant KISQMVNYESTHVNAVA | QMSTREE | QQYHRLPLS [En_HC] gave 490 pM (6 of 6 replicates).
The variant KIQQSELQSSRNKNSVA | NASERES | QQYHRLPLS [GP_Gibbs] gave 540 pM (6 of 6 replicates).
The variant HITDLMYNNNEGMKNIA | DKNISVM | QQYFRLPLS [En_Gibbs] gave 650 pM (6 of 6 replicates).
The variant QLPNARPDGYLQKNNVA | EGTERSH | QQYMRLPLF [En_Gibbs] gave 780 pM (6 of 6 replicates).
The variant KLVQFMNRGTHAKSNIA | DAQNRTD | QQYARLPLA [En_Gen] gave 810 pM (6 of 6 replicates).

Values of this round are not directly comparable with the first-round values of the same sequences. Empty control strains, which show no peptide, gave a signal in 4% of pairings with all light chain designs; the median was 430 nM and 95% of these signals were weaker than 38 nM. No background was subtracted. The parent sequence was in this pool as ten entries: three were never detected, three once, and four in most replicates, with averages from 2.2 nM to 240 nM. In the paper, a design with two or fewer of six values counts as a poor binder.